Measurements from US20090060919A1.

Protein sequences, listed by entry. Tags and fused reporters are not part of them. Chains listed by the source or under a name are the forms on record and can include a tag or linker.
UniProt P01854, other isoform, or with tags, fused parts or gaps: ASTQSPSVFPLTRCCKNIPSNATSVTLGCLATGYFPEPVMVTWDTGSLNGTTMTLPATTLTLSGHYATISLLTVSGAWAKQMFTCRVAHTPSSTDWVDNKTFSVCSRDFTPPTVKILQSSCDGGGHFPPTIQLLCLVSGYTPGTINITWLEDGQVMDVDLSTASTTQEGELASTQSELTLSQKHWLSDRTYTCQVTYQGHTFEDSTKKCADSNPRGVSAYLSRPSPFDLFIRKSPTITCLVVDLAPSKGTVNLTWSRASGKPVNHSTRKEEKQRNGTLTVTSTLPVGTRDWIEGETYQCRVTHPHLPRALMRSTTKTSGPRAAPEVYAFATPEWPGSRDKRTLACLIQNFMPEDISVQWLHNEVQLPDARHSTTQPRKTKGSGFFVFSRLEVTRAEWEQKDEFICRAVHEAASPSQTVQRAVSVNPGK

How the values were obtained:
human IgE (human) = human IgE (human) (UniProt P01854); assay: KinExA
[1] = target: IgE in human serum (human) (UniProt P01854); assay: ELISA: free serum IgE captured on coated FcERI-Fc-His after mixing serum with antibody; same experiment

Kd (human IgE (human)): 0.353 nM
IC50 [1]: 57 nM
Substance: Xolair (Omalizumab) (antibody)
